# Yeast mating assay 2: variants of the scFv Ab-95

Antigen: PDVDLGDISGINAS, a 14-residue peptide of the SARS-CoV-2 spike HR2 region.

Each scFv is VH, three GGGGS repeats, VL, as in the parent Ab-95, and differs from it in the CDRs of the light chain only.
VH: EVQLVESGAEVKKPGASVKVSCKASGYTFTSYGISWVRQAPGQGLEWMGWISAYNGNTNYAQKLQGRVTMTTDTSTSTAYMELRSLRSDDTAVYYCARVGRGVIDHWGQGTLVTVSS
VL: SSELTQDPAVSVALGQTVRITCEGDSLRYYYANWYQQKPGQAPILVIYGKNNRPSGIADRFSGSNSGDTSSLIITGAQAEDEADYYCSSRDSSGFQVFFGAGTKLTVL

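The starting antibody came from a phage panning campaign against this peptide. Library AAYL52 holds single substitutions and randomly drawn double and triple substitutions in the CDRs. Affinity was read by AlphaSeq, a pooled yeast mating assay with surface-displayed partners. Pairs that bind mate more often; barcode pairs of the diploids are counted by sequencing. Each replicate has its own calibration line, from reference interactions of the BCL2 family. Each pool was mated in three replicate cultures.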

Changes read parent residue, position, new residue, counted from the first residue of the VL shown.
Numbers give log10(Kd / nM), so 0 is 1 nM and 3 is 1 µM. Smaller is tighter.
Where no diploid with the target was found in that replicate, the entry reads "n.d.": below detection, most likely a poor binder, though not proof of it.
Parent in this assay: reference entry 2.31, copy in this library 2.25.

| changes | log10 Kd, replicates | signal with controls |
|---|---|---|
| E23Q S88N S92V | 1.61 / 1.78 / 1.85 | 1/9 (3.73) |
| G49I | 4.30 / n.d. / 4.50 | 1/9 (3.31) |
| D91T S92R | 2.66 / 2.64 / 2.60 | 3/9 (3.85) |
| R53G D91F F95Y | n.d. / 5.49 / 4.50 | 4/9 (3.75) |
| R53P P54D F95W | 5.45 / n.d. / n.d. | 3/9 (4.11) |
| Y30E G49I R53T | 4.28 / 5.87 / n.d. | 4/9 (3.70) |
| G24Y R28C S88T | n.d. / n.d. / n.d. | 2/9 (3.64) |
| G24F G49W G94Y | 4.40 / 5.23 / n.d. | 5/9 (3.96) |
| E23S L27G G49A | 4.19 / 4.64 / n.d. | 3/9 (4.49) |
| S89K G94S F95Q | 3.19 / n.d. / n.d. | 2/9 (3.96) |
| L27H Y31A S88V | n.d. / n.d. / 4.25 | 3/9 (3.52) |
| K50C R53C F95C | n.d. / n.d. / n.d. | 2/9 (3.68) |
| R90E Q96L | 3.08 / 2.70 / 3.06 | 6/9 (3.72) |
| G49C N51I S89G | n.d. / 3.89 / 3.88 | 4/9 (4.28) |
| R28E A32E R53H | n.d. / n.d. / n.d. | 1/9 (3.80) |
| N51Q S55P R90W | 3.31 / n.d. / n.d. | 2/9 (3.93) |
| L27C Y30E S88I | n.d. / n.d. / n.d. | 1/9 (2.79) |
| R28I K50R F98H | 2.77 / 3.62 / 2.93 | 2/9 (3.49) |
| E23W G24K F95T | 3.79 / 4.49 / n.d. | 2/9 (3.62) |
| N52E R53Y S55D | 3.16 / 3.44 / 4.06 | 3/9 (4.11) |
| R90C D91K S93W | 3.70 / 4.20 / n.d. | 4/9 (3.32) |
| E23Y A32Q D91W | n.d. / 3.37 / n.d. | 1/9 (5.13) |
| L27T Y30D S88W | 4.74 / 3.32 / n.d. | 1/9 (4.20) |
| G24A R90G D91T | 4.11 / 5.50 / n.d. | 6/9 (4.17) |
| S26V Y30Q S89T | 1.17 / 1.11 / 0.78 | 3/9 (3.90) |
| S26A L27A S92L | 3.44 / 4.44 / n.d. | 2/9 (4.08) |
| G24M D25M N52I | 4.08 / 3.10 / n.d. | 3/9 (4.11) |
| K50F N52Y R53I | 3.99 / n.d. / n.d. | 2/9 (3.52) |
| E23D A32T S89V | 2.46 / 2.80 / 2.46 | 1/9 (3.84) |
| E23G K50Q | 1.70 / 1.63 / 1.11 | 4/9 (3.95) |
| Y30V N51V G94K | n.d. / n.d. / n.d. | 0/9 |
| D25N G49V | n.d. / 4.71 / n.d. | 2/9 (4.23) |
| Y29Q N33P F98H | n.d. / n.d. / n.d. | 1/9 (3.39) |
| D25T D91Y | 2.58 / 2.35 / 2.42 | 4/9 (3.95) |
| R28N N52S S55E | 2.03 / 2.09 / 1.56 | 5/9 (4.20) |
| Y29P N52M S92P | 2.72 / 2.82 / 2.55 | 1/9 (4.22) |
| E23H D25F Y30N | 1.46 / 1.34 / 0.92 | 3/9 (3.56) |
| S26M S89I Q96M | n.d. / n.d. / n.d. | 4/9 (3.29) |
| D25K G94F Q96L | 2.67 / 2.75 / 3.99 | 4/9 (2.77) |
| S26C R28T F98A | 3.50 / n.d. / 2.15 | 1/9 (3.53) |
| A32W R53Q G94D | n.d. / n.d. / n.d. | 2/9 (4.10) |
| N33P S89E D91S | 5.63 / 4.69 / 3.25 | 3/9 (3.90) |
| S26P Y31T N51W | n.d. / 4.82 / 3.63 | 6/9 (4.26) |
| S26W R28N | 3.48 / 2.84 / 3.03 | 5/9 (4.04) |
| G49D R53D G94F | n.d. / n.d. / n.d. | 2/9 (3.82) |

Top 7 of the variants detected in all replicates, tightest first:

| changes | log10 Kd, replicates | signal with controls |
|---|---|---|
| S26V Y30Q S89T | 1.17 / 1.11 / 0.78 | 3/9 (3.90) |
| E23H D25F Y30N | 1.46 / 1.34 / 0.92 | 3/9 (3.56) |
| E23G K50Q | 1.70 / 1.63 / 1.11 | 4/9 (3.95) |
| E23Q S88N S92V | 1.61 / 1.78 / 1.85 | 1/9 (3.73) |
| R28N N52S S55E | 2.03 / 2.09 / 1.56 | 5/9 (4.20) |
| D25T D91Y | 2.58 / 2.35 / 2.42 | 4/9 (3.95) |
| E23D A32T S89V | 2.46 / 2.80 / 2.46 | 1/9 (3.84) |

Empty control strains, which show no peptide, gave a signal in 28% of pairings with library AAYL52; the median was 3.91 and 95% of these signals were weaker than 2.90. No background was subtracted. The control count says in how many pairings with the empty strains this scFv gave a signal, with their mean in brackets.

Source: Engelhart et al. 2022 (doi:10.1038/s41597-022-01779-4), MIT Lincoln Laboratory and A-Alpha Bio; data file from the FLAb repository.